Structures are written as SMILES.

The test system of the experiment is 22Rv1 cells. The experiment is described as follows: In vitro cell proliferation inhibition assay 1 (CCK8). In kind it is cell-based. Particulars: read-out: 22Rv1/IC50/μM, ATM mutated human prostate cancer cell 22Rv1, 120 hours.

For `Cc1n[nH]c(C)c1-c1cc(N2CC3CCC(C2)O3)nc2c(-c3ccn[nH]3)cnn12`, the IC50 turned out to be 0.59 µM.
